The values that follow are results of earlier work, collected in patent publication US7794835B2, “Fixing solution, capsule structure, fixing method, fixing device and image forming apparatus” (Ricoh Company, Ltd., priority 2004, dated 2010).

The conditions of this series: acute oral toxicity; cited from earlier work.

With dimethylsiloxane, the LD50 – broadly, the dose expected to kill half of the subjects tested – is 15000 mg/kg.
